The results in this text go back to ChEMBL document CHEMBL1138750, “Design, synthesis, and biological evaluation of 1,2,3,7-tetrahydro-6h-purin-6-one and 3,7-dihydro-1h-purine-2,6-dione derivatives as corticotropin-releasing factor(1) receptor antagonists” (J Med Chem, 2004).

The experiment deals with T1, Corticotropin-releasing factor receptor 1 (Rattus norvegicus, UniProt P35353).
T1 sequence (P35353 whole entry): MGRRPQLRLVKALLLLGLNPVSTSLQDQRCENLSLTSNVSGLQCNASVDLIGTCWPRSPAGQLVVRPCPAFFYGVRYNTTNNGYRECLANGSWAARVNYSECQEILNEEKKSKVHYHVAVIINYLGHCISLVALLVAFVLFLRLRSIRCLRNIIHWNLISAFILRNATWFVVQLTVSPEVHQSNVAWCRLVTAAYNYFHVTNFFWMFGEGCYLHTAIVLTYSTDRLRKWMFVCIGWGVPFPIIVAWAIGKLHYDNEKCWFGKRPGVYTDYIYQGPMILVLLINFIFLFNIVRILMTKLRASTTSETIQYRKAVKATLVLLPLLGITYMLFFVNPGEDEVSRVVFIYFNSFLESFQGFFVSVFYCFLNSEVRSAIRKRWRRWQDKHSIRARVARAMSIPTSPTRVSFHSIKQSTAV
Kind of experiment: Inhibition of [125I]- Ovine CRF binding to rat frontal cortex corticotropin releasing factor 1 receptor. In kind it is tissue-based. Summed up: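 Frozen rat frontal cortex homogenate (25 μg/well) in 50 mM HEPES pH 7.0 with 10 mM MgCl₂, 2 mM EGTA, protease inhibitors, 0.005% Triton X-100, bacitracin and 0.1% ovalbumin. Bound ligand collected by filtration on PEI-treated filters and gamma counted. Nonspecific binding defined with 1 μM DMP696.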

Each structure is given as a SMILES string.

By IC50 is commonly meant the point on the concentration scale where inhibition reaches its midpoint. Regarding `CCc1nc2c(n1Cc1cccc3ccccc13)C(=O)N(C)CN2c1ccc(Cl)cc1Cl`, the IC50 amounted to 9 µM. In turn, `CCc1nc2c(c(=O)n(C)c(=O)n2-c2ccc(Cl)cc2Cl)n1C(CC)CC` showed an IC50 of 2.99 µM.
